Experimental data taken from EP4821917A1, “PROLIFERATING CELL NUCLEAR ANTIGEN INHIBITOR, AND PREPARATION METHOD THEREFOR, INTERMEDIATE THEREOF, PHARMACEUTICAL COMPOSITION THEREOF AND USE THEREOF” (dated 2026).

Test system: HL-60
Assay: Antitumor activity assay (CellTiter-Glo), HL-60
Conditions: Table 3; HL-60; Max. Concentration 10 µM; 48 h; CTG
Procedure: (§1) Table 2 Cell Culture Conditions
(§2) • a) The cell cryopreservation tube was taken out from liquid nitrogen and placed in a water bath at 37°C for rapid thawing. After the surface of the cryopreservation tube was wiped with 75% ethanol, the cryopreservation tube was transferred into a biosafety cabinet. • b) The cryopreserved cells were transferred into a 15-mL sterile centrifuge tube. Culture medium in a volume 10 times that of the cryopreservation solution was added, and centrifuged at 1,200 rpm for 5 min. • c) The culture medium in the centrifuge tube was discarded. An appropriate volume of fresh culture medium (Table 2) was added. The cells were re-suspended, transferred into a culture flask and cultured in a cell culture incubator at 37°C. The culture medium was replaced the next day.
(§3) • a) For adherent cells at the logarithmic growth phase, the culture medium was discarded. The cells were washed with 8 mL of PBS two times, and the PBS was discarded. • b) 5 mL of a dissociation solution containing 0.25% trypsin was added, and the cells were incubated at 37°C for 3 to 5 min. […] The cells were gently pipetted to detach them from the culture surface, thereby obtaining a cell suspension for subsequent passaging and experimentation.
(§4) • a) The cells were harvested directly and collected by centrifugation.
(§5) • a) Preparation of cell suspension • i. the culture medium was removed from the culture flask; • ii. the cells were rinsed with PBS two times; • iii. trypsin was added to dissociate the cells, and after the dissociation was terminated by adding culture medium, the cells were collected by centrifugation; the suspension cells were collected directly; • iv. the cells were re-suspended in culture medium, counted and adjusted to an appropriate concentration. • b) The cell suspension was added to a 384-well plate at a volume of 40 µL per well. The number of cells per well was shown in Table 2. • c) The cells were incubated at 37°C in a 5% CO2 incubator for 48 h.
(§6) • a) Preparation of gradient dilution solutions of positive compounds and test compounds: A 10 mM stock solution of each compound was prepared using DMSO. Subsequently, a 3-fold serial gradient dilution was carried out with DMSO to generate a total of 10 concentration points for each compound.
(§7) • a) 40 nL of compound was transferred using an Echo550 system. The cell suspension was added to the cell culture plate at a volume of 40 µL per well. • b) The cells were transferred to an incubator and incubated for 48 h.
(§8) • a) The cell culture plate was removed and allowed to equilibrate at room temperature for 30 min. • b) The working solution for the CTG assay was prepared according to the instructions of the Promega kit and equilibrated to 25°C in an incubator. • c) 30 µL of CellTiter-Glo was transferred to each well of the cell culture plate. After incubation at room temperature for 15 min, the chemiluminescence was read using Ensight.
(§9) The inhibition ratio (% inhibition) was calculated using the following formula: %Inhibition = 100%−100% × (LumSample −LumLC)/(LumHC −LumLC) [formula] • LumHC: reading of cells in the control group treated with 1‰ DMSO • LumSample: reading of cells treated with compound • LumLC: reading of cells in blank culture medium
(§10) The IC50 was calculated using XLfit (5.3.1.3) by fitting the data to formula 201: y = (A+((B-A)/(1+((x/C)^D)))) • A: Bottom • B: Top • C: IC50 (Rel IC50) • D: Hill Slope Table 3 Inhibitory Activity of Compounds Against HL-60

SMILES | IC50 [µM]
O=C(CNC(=O)c1cccc2ccccc12)Nc1ccccc1Oc1ccc2c(c1)CCO2 | 0.21
O=C(CNC(=O)c1cccc2ccccc12)Nc1ccccc1Oc1ccc2c(c1)OCO2 | 0.484
Cn1cnc2ccc(Oc3ccccc3NC(=O)CNC(=O)c3cccc4ccccc34)cc21 | 0.581
Cn1ccc2ccc(Oc3ccccc3NC(=O)CNC(=O)c3cccc4ccccc34)cc21 | 0.528

Now those with a lower IC50, led by results:

IC50 [µM] | SMILES
0.064 | Cc1cc2c(cc1Oc1cc(F)ccc1NC(=O)CNC(=O)c1cccc3ccccc13)CCO2
0.063 | [2H]C([2H])([2H])c1cc2c(cc1Oc1ccccc1NC(=O)CNC(=O)c1cccc3ccccc13)CCO2

Same assay, conditions: Table 5 (broad-spectrum assay); HL-60

SMILES | IC50 [µM]
Cc1cc2c(cc1Oc1cc(F)ccc1NC(=O)CNC(=O)c1cccc3ccccc13)CCO2 | 0.081
[2H]C([2H])([2H])c1cc2c(cc1Oc1ccccc1NC(=O)CNC(=O)c1cccc3ccccc13)CCO2 | 0.0646

Same assay, conditions: comparison in words

SMILES | antitumor activity (HL-60) relative to the corresponding compounds 44 and 93
Cc1cc2c(cc1Oc1cc(F)ccc1NC(=O)CNC(=O)c1cccc3ccccc13)CCO2 | comparable

Same assay, conditions: fold relative to AOH-1996

SMILES | higher inhibitory activity against HL-60 as compared to Comparative Compound 2 (AOH-1996)
O=C(CNC(=O)c1cccc2ccccc12)Nc1ccccc1Oc1ccc2c(c1)CCO2 | three times higher
[2H]C([2H])([2H])c1cc2c(cc1Oc1ccccc1NC(=O)CNC(=O)c1cccc3ccccc13)CCO2 | approximately nine times higher

Same assay, conditions: fold relative to AOH-1996; listed as MTB-1956

SMILES | higher inhibitory activity against HL-60 as compared to Comparative Compound 2 (AOH-1996)
O=C(CNC(=O)c1cccc2ccccc12)Nc1ccccc1Oc1ccc2c(c1)CCO2 | three folds higher

Test system: Human glioma (U-251)
Assay: Broad-spectrum antitumor activity assay, U-251
Conditions: Table 5
Procedure: as §2, with “The cells were re-suspended, transferred into a culture flask and cultured in a cell culture incubator at 37°C. The culture medium was replaced the next day.” left out
(§11) • a) Preparation of cell suspension • i. the culture medium was removed from the culture flask; • ii. the cells were rinsed with PBS two times; • iii. trypsin was added to dissociate the cells, and after the dissociation was terminated by adding culture medium, the cells were collected by centrifugation; the suspension cells were collected directly; • iv. the cells were re-suspended in culture medium, counted and adjusted to an appropriate concentration. • b) The cell suspension was added to a 384-well plate at a volume of 40 µL per well. […]
(§12) The IC50 was calculated using XLfit (5.3.1.3) by fitting the data to formula 201: y = (A+((B-A)/(1+((x/C)^D)))) • A: Bottom • B: Top • C: IC50 (Rel IC50) • D: Hill Slope Table 3 Inhibitory Activity of Compounds Against HL-60 […]

SMILES | IC50 [µM]
[2H]C([2H])([2H])c1cc2c(cc1Oc1ccccc1NC(=O)CNC(=O)c1cccc3ccccc13)CCO2 | 0.0608

Test system: Human ovarian cancer (OVCAR-3)
Assay: Broad-spectrum antitumor activity assay, OVCAR-3
Conditions: Table 5
Procedure: as §2, §3, §4, §5, §6, §7, §8, §9, §12

SMILES | IC50 [µM]
Cc1cc2c(cc1Oc1cc(F)ccc1NC(=O)CNC(=O)c1cccc3ccccc13)CCO2 | 0.0882
[2H]C([2H])([2H])c1cc2c(cc1Oc1ccccc1NC(=O)CNC(=O)c1cccc3ccccc13)CCO2 | 0.0803

Test system: Non-small cell lung cancer (A-549)
Assay: Broad-spectrum antitumor activity assay, A-549
Conditions: Table 5
Procedure: as §2
(§13) • a) For adherent cells at the logarithmic growth phase, the culture medium was discarded. The cells were washed with 8 mL of PBS two times, and the PBS was discarded. • b) 5 mL of a dissociation solution containing 0.25% trypsin was added, and the cells were incubated at 37°C for 3 to 5 min. […]
as §11
(§14) • a) The cell culture plate was removed and allowed to equilibrate at room temperature for 30 min. • b) The working solution for the CTG assay was prepared according to the instructions of the Promega kit and equilibrated to 25°C in an incubator. • c) 30 µL of CellTiter-Glo was transferred to each well of the cell culture plate. After incubation at room temperature for 15 min, the chemiluminescence was read using Ensight. […]

SMILES | IC50 [µM]
[2H]C([2H])([2H])c1cc2c(cc1Oc1ccccc1NC(=O)CNC(=O)c1cccc3ccccc13)CCO2 | 0.0719

Test system: not listed separately
Assay: Pharmacokinetic study, single gavage to mice
Conditions: comparison in words
Procedure: Pharmacokinetic studies on administration of comparative compound 2 (AOH-1996), compound 100 (MTB-2006) and compound 99 via single gavage to female CB-17 SCID (B-Ces1c KO) mice
Prior to the first administration, animals were grouped based on body weight. The animals were weighed before administration, and the dosing volume was calculated based on the body weight.
After each formulation was prepared, two aliquots of the clear dosing solution (top and bottom layers) or three aliquots of the suspension (top, middle, and bottom layers) were collected. The formulation was analyzed by HPLC-UV to evaluate the accuracy of the formulation concentration.
Plasma samples were collected at 0.167, 0.333, 0.5, 1, 2, 4, 6, and 12 h after administration.
Whole blood collection and preparation of plasma samples: Whole blood was collected from the saphenous vein of each animal (approximately 0.02 mL per time point) into pre-cooled commercial blood collection tubes (containing EDTA-K2 as an anticoagulant) at each time point. Within 10 seconds after collection of the whole blood, a stabilizer was added at a ratio of whole blood to 400 mM DDV (19:1, v:v). The samples were placed on wet ice till centrifugation. Blood samples collected at each time were kept on wet ice prior to centrifugation, and centrifuged at approximately 4°C and 3,200 g for 10 min to prepare plasma samples. Subsequently, the plasma samples were transferred to low-adsorption tubes, flash-frozen on dry ice, and stored at a temperature of -60°C or lower till LC-MS/MS. The sample processing was carried out under wet ice conditions.
The concentration of the formulation for administration was determined by the HPLC-UV method. The calibration curve consisted of at least six concentration levels. Each sample was analyzed in duplicate. The measured concentration should fall within 80% to 120% of the theoretical formulation concentration; otherwise, the pharmacokinetic parameters should be calculated based on the actual dose.
Under non-GLP conditions, an LC-MS/MS method for the quantitative determination of the test compounds in biological matrices was established. Table 6. Pharmacokinetic Data of AOH-1996, Compound 99, and MTB-2006

SMILES | Cmax and half-life as compared to compound AOH-1996
Cc1cc2c(cc1Oc1cc(F)ccc1NC(=O)CNC(=O)c1cccc3ccccc13)CCO2 | significantly improved

Same assay, conditions: conclusion from the pharmacokinetic results (Table 6), relative to AOH-1996

SMILES | biological stability
Cc1cc2c(cc1Oc1cc(F)ccc1NC(=O)CNC(=O)c1cccc3ccccc13)CCO2 | better biological stability

Same assay, conditions: single gavage, CB-17 SCID (B-Ces1c KO) mice, plasma; dose not given

SMILES | AUC 0-last [ng·h/mL] | Cmax [ng/mL] | T1/2 [h]
Cc1cc2c(cc1Oc1cc(F)ccc1NC(=O)CNC(=O)c1cccc3ccccc13)CCO2 | 345 | 68.6 | 3.21

Test system: Human breast cancer (MCF7)
Assay: Broad-spectrum antitumor activity assay, MCF7
Conditions: Table 5
Procedure: as §2, §3, §4, §5, §6, §7, §8, §9, §12

SMILES | IC50 [µM]
Cc1cc2c(cc1Oc1cc(F)ccc1NC(=O)CNC(=O)c1cccc3ccccc13)CCO2 | 0.0793
[2H]C([2H])([2H])c1cc2c(cc1Oc1ccccc1NC(=O)CNC(=O)c1cccc3ccccc13)CCO2 | 0.0725

Test system: Human prostate cancer (PC-3)
Assay: Broad-spectrum antitumor activity assay, PC-3
Conditions: Table 5
Procedure: as §2, §13, §11, §14

SMILES | IC50 [µM]
[2H]C([2H])([2H])c1cc2c(cc1Oc1ccccc1NC(=O)CNC(=O)c1cccc3ccccc13)CCO2 | 0.067

Test system: Human peripheral blood mononuclear cell (Human PBMC)
Assay: Cytotoxicity toward normal cells, Human PBMC
Conditions: Table 5; normal Human PBMC; highest test concentration 10 µM
Procedure: as §2, §3, §4, §5, §6, §7, §8, §9, §10
According to the test methods described above, the antitumor activities of the test compounds and AOH-1996 in various tumor cell lines were tested (Table 5).

SMILES | IC50 [µM]
Cc1cc2c(cc1Oc1cc(F)ccc1NC(=O)CNC(=O)c1cccc3ccccc13)CCO2 | > 10
[2H]C([2H])([2H])c1cc2c(cc1Oc1ccccc1NC(=O)CNC(=O)c1cccc3ccccc13)CCO2 | > 10

Same assay, conditions: at the highest test concentration of 10 µM

SMILES | cytotoxicity toward normal human peripheral blood mononuclear cells (PBMCs)
Cc1cc2c(cc1Oc1cc(F)ccc1NC(=O)CNC(=O)c1cccc3ccccc13)CCO2 | no significant cytotoxicity
[2H]C([2H])([2H])c1cc2c(cc1Oc1ccccc1NC(=O)CNC(=O)c1cccc3ccccc13)CCO2 | no significant cytotoxicity

Test system: colon cancer (HCT-116)
Assay: Broad-spectrum antitumor activity assay, HCT-116
Conditions: Table 5
Procedure: as §2, with “The cells were re-suspended, transferred into a culture flask and cultured in a cell culture incubator at 37°C. The culture medium was replaced the next day.” left out
as §11, §12

SMILES | IC50 [µM]
[2H]C([2H])([2H])c1cc2c(cc1Oc1ccccc1NC(=O)CNC(=O)c1cccc3ccccc13)CCO2 | 0.0205

Test system: NCI-H522
Assay: Antitumor activity assay (CellTiter-Glo), NCI-H522
Conditions: Table 4; NCI-H522; Max. Concentration 10 µM; 48 h; CTG
Procedure: as §1, §2, §3, §4, §5, §6, §7, §8, §9, §10

SMILES | IC50 [µM]
O=C(CNC(=O)c1cccc2ccccc12)Nc1ccccc1Oc1ccc2c(c1)CCO2 | 0.134

Same assay, conditions: comparison in words

SMILES | antitumor activity (NCI-H522) relative to AOH-1996
O=C(CNC(=O)c1cccc2ccccc12)Nc1ccccc1Oc1ccc2c(c1)CCO2 | significantly enhanced

Test system: Human renal cancer (786-O)
Assay: Broad-spectrum antitumor activity assay, 786-O
Conditions: Table 5
Procedure: as §2, §3, §4, §5
• a) Preparation of gradient dilution solutions of positive compounds and test compounds: A 10 mM stock solution of each compound was prepared using DMSO. […]
as §14, §12

SMILES | IC50 [µM]
Cc1cc2c(cc1Oc1cc(F)ccc1NC(=O)CNC(=O)c1cccc3ccccc13)CCO2 | 0.0791
[2H]C([2H])([2H])c1cc2c(cc1Oc1ccccc1NC(=O)CNC(=O)c1cccc3ccccc13)CCO2 | 0.0631
